In this test the test system is 4T1-luciferase tumor. In words: 4T1-luciferase tumor model with IR, cGAMP and anti-CTLA-4: tumor volume and survival. Type of test: in vivo, mouse. The settings on record: IR pretreatment with compound 1 and anti-CTLA-4.

The source of these data is patent US11701371B2, “ENPP1 inhibitors and their use for the treatment of cancer” (THE BOARD OF TRUSTEES OF THE LELAND STANFORD JUNIOR …, priority 2017, dated 2023).

Structures are written as SMILES.

For `COc1cc2ncnc(N3CCC(CCP(=O)(O)O)CC3)c2cc1OC` [Compound 1, dimethyl (2-(1-(6,7-dimethoxyquinazolin-4-yl)piperidin-4-yl)ethyl)phosphonic acid], the cure rate is 10%.
